The target in assay [1] is human CD38 (Homo sapiens, UniProt P28907). In words: NAD+ cyclase activity assay with human recombinant CD38 protein (ε-NAD fluorescence). Particulars: read-out: Human CD38 IC50; 1.9 nM human CD38, substrate ε-NAD, 30 min preincubation, fluorescence 300/410 nm.
For assay [2], the target named is mouse CD38 (Mus musculus, UniProt P56528). In words: NAD+ cyclase activity assay with mouse recombinant CD38 protein (ε-NAD fluorescence). Particulars: read-out: Mouse CD38 IC50; 0.6 nM mouse CD38, substrate ε-NAD, 30 min preincubation, fluorescence 300/410 nm. As for the experimental part: Example 4: NAD^+ Cydase Activity Assay with Human or Mouse Recombinant CD38 Protein
The following assay was used to determine the ability of compounds of the invention to inhibit the hydrolysis of NAD^+ by the human or mouse enzyme, CD38.
Reaction buffer: 40 mM HEPES/NaOH pH 7.5, 250 mM sucrose, 0.01% Tween
Final concentrations: 0.6 nM mouse CD38 (4947-AC, Bio-Techne GmbH) 1.9 nM human CD38 (AVI2404, Bio-Techne GmbH)
Substrate: […] Nicotinamide 1,N6-ethenoadenine dinucleotide (&-NAD)
Read-out: Fluorescence intensity (extinction 300 nm/emission 410 nm)
Required reaction buffer, required CD38 concentration in reaction buffer and required e-NAD concentration in reaction buffer were prepared. […] After shaking for 15 s at 1450 rpm, plate was sealed, and assay signal were measured continuously with PHERAstar® fluorescence intensity module (extinction 300 nm/emission 410 nm).
Dose-response curves were constructed using twelve-pointfactor three dilutions in triplicates per plate. […] For data analysis, fluorescent signal of traces corresponding to each compound concentration and High and Low control were monitored over time. […] Thereafter, slopes of all compound concentrations were determined via fitting to same linear equation (GraphPad Prism) over the same time interval as determined for High control. […]

By UniProt entry, the sequences of proteins in these tests, tags left out.
UniProt P28907, whole entry: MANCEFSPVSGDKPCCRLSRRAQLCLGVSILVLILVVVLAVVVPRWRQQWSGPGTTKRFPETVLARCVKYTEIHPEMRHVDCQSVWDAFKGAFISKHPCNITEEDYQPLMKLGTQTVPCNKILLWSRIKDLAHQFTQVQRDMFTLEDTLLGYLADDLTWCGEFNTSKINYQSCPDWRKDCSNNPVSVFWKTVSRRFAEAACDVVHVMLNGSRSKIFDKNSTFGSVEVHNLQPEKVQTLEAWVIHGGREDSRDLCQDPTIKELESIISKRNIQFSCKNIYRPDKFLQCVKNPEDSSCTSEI
UniProt P56528, whole entry: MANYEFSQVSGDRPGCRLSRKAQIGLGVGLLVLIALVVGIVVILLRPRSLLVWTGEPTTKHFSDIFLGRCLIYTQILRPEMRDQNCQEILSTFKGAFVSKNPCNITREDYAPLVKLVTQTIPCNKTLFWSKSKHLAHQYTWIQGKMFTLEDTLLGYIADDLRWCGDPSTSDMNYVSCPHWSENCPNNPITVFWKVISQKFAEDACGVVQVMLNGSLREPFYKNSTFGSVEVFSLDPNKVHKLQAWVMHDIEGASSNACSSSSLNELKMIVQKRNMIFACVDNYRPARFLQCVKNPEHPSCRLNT

With `CNc1nc2cc(NC(=O)c3ccc4c(c3)-c3cncn3CCO4)ccc2s1`, the values for the IC50 in assay [1] and in assay [2] were below 0.03 µM and 0.001 to 0.01 µM, respectively.

One may read the IC50 as the midpoint of a concentration-inhibition curve.

Values taken from US20260138990A1, “TRICYCLIC FUSED IMIDAZOLE COMPOUNDS AS CD38 MODULATORS AND USES THEREOF” (AEOVIAN PHARMACEUTICALS, INC., priority 2023, published 2026).
